Test [1] addresses T1, USP7 (Homo sapiens, UniProt Q93009). The test is described as follows: USP7 protein degradation by western blot in CAL33 cells. Conditions: dose- and time-dependent. The protocol:
To specifically degrade USP7, a set of 66 PROTAC compounds were designed and synthesized that contain an USP7 specific binding moiety XL177A and an E3 ubiquitin ligase (CRBN or VHL) binding moiety connected by different linkers. All putative USP7 PROTACs were used to treat CAL33 cells that express high levels of USP7 protein, and then the USP7 protein levels were determined by western blot (FIGS. 10A and 10B). Through initial screening, PU7-1 was identified as a potential USP7 degrader (FIG. 3A and FIG. 10). […] The effect of PU7-1 was also tested in several human cancer cells harboring wild-type p53. […] In addition, to exclude the possibility that PU7-1 affects the USP7 protein levels by regulating its transcription, a quantitative real-time PCR was performed in CAL33 treated with PU7-1 for 72 h. […]
Cells were lysed in FLAG lysis buffer (50 mM Tris-HCl (pH 7.3), 137 mM NaCl, 10 mM NaF, 0.5 mM EDTA, 1% Triton X-100, 0.2% Sarkosyl, 10% glycerol) freshly supplemented with protease inhibitor cocktail. Protein concentration was determined by the Bio-Rad protein assay. […] Membranes were blocked with 5% (w/v) nonfat milk in Tris-buffered saline with Tween-20 (TBST), incubated with primary antibodies, then secondary HRP-conjugated antibodies (Jackson ImmunoResearch, 1:10000 dilution) and detected on autoradiographic films after incubating with ECL (Thermo Scientific, #32106). […]
In general terms: Immunoblotting shows a protein as a band on a membrane.

Chains of the proteins cited; added tags and fusions are not shown.
UniProt Q93009, whole entry: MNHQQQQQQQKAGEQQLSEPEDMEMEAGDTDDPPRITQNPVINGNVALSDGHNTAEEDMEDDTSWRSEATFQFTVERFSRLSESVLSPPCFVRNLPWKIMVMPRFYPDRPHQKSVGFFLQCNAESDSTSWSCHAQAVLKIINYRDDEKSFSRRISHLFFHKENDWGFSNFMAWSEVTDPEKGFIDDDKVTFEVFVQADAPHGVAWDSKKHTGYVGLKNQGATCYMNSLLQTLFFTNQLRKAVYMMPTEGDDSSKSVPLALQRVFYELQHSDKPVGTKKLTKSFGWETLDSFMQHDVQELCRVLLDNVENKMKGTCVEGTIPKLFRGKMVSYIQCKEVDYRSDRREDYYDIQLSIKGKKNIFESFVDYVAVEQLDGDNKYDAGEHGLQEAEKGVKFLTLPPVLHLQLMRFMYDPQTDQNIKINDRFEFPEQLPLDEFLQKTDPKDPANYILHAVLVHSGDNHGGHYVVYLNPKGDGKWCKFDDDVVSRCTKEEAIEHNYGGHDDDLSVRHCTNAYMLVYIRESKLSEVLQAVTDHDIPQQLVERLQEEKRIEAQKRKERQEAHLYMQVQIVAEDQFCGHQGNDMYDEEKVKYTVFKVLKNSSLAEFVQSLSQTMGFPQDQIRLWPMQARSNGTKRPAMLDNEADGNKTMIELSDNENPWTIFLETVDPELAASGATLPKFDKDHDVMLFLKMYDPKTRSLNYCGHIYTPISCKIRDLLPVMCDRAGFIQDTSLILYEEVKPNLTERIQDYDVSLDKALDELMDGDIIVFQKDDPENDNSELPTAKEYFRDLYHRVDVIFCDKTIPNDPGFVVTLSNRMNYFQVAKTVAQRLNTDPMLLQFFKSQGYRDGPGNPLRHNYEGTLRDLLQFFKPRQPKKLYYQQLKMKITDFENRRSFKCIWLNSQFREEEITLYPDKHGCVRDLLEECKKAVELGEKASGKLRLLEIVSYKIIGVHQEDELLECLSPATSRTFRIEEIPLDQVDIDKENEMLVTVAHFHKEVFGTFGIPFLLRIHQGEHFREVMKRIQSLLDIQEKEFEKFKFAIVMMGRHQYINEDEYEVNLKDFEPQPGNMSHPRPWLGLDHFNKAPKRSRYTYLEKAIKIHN

Test [2] addresses T1, USP7. Briefly: USP7 degradation in CRBN knockout CAL33 cells. The class given is cell-based. As to conditions: CRBN KO CAL33 cells, 2.5 μM, 72 h. How it is done: To investigate the mechanism of action of PU7-1, CRBN knockout (KO) CAL33 cell line was generated using CRISPR-Cas9 technology. Control and CRBN KO cells were treated with 2.5 μM of PU7-1 for 72 h and then the expression levels of USP7 and CRBN proteins were detected by western blot analysis. CRBN protein was undetectable in the KO cells (FIG. 3H). […] CAL33 cells were first treated with 5 μM of PU7-1 for 48 h to degrade the USP7 proteins, and then treated with 5 μM of MLN4924, 25 μM of Chloroquine (CLQ) or 5 μM of MG132 for additional 24 h.
For CRBN knockout cell line, the plenti-px330-CRBN-T1-pGK-Pur construct was purchased from Addgene. HEK293 cells were transiently transfected with plenti-px330-CRBN-T1-pGK-Pur, VSVG and Δ8.9 constructs for lentivirus packaging. Viruses were harvested at 48 h post-transfection. CAL33 cells were transfected with CAS9 constructs and infected with lentiviral particles, and then selected with 1 μg/ml puromycin. CRBN knockout clones were identified by western blot using CRBN specific antibody.

The subject of test [3] is FOXM1. The test is described as follows: FOXM1 protein levels by Western blot in TNBC cell lines. The class given is cell-based, human. As to conditions: MDA-MB-468, MDA-MB-231 and BT549, 10 μM, 96 h. How it is done: FIGS. 5B and 5C show representative images (FIG. 5B) and normalized absorbance at 600 nm (FIG. 5C) of colony-formation assays in MDA-MB468 and BT549 treated with or without 10 μM of PU7-1 for 2 weeks. […] FIGS. 5F and 5G show representative images of MDA-MB-468 tumors (FIG. 5F) and quantification of tumor weight (G) in nude mice xenograft model. **p<0.01.
Given the high expression of FOXM1 in triple-negative breast cancer, the effects of the USP7 degrader PU7-1 were next investigated in TNBC cells. First, three TNBC cell lines MDA-MB-468, MDA-MB-231 and BT549 were treated with 10 μM of PU7-1 for 96 h. The protein levels of FOXM1 were determined by Western blot. […] Next, the effects of PU7-1 were examined on TNBC cell proliferation. MDA-MB468 and BT549 were incubated in the complete growth medium with or without 10 μM of PU7-1 for two weeks. […] Furthermore, the dye bound to the cells was solubilized with 30% acetic acid and measured by the absorbance at 600 nm. […] The IC50 of PU7-1 in TNBC cells were then determined using a luminescent cell viability assay. […]
(§1) Cells were lysed in FLAG lysis buffer (50 mM Tris-HCl (pH 7.3), 137 mM NaCl, 10 mM NaF, 0.5 mM EDTA, 1% Triton X-100, 0.2% Sarkosyl, 10% glycerol) freshly supplemented with protease inhibitor cocktail. Protein concentration was determined by the Bio-Rad protein assay. […]

The next test deals with p53 pathway. Briefly: USP7 levels and p53 pathway (p53, p21) immunoblots in cancer cells harboring wild-type p53. The class given is cell-based. Conditions: human cancer cells harboring wild-type p53, 10 μM, 72 h. How it is done: FIG. 11A show human cancer cells harboring wildtype p53 treated with or without 10 μM of PU7-1 for 72 h. The protein levels of p53 and its target p21 were detected by immunoblotting.
To specifically degrade USP7, a set of 66 PROTAC compounds were designed and synthesized that contain an USP7 specific binding moiety XL177A and an E3 ubiquitin ligase (CRBN or VHL) binding moiety connected by different linkers. All putative USP7 PROTACs were used to treat CAL33 cells that express high levels of USP7 protein, and then the USP7 protein levels were determined by western blot (FIGS. 10A and 10B). Through initial screening, PU7-1 was identified as a potential USP7 degrader (FIG. 3A and FIG. 10). […] The effect of PU7-1 was also tested in several human cancer cells harboring wild-type p53. […] In addition, to exclude the possibility that PU7-1 affects the USP7 protein levels by regulating its transcription, a quantitative real-time PCR was performed in CAL33 treated with PU7-1 for 72 h. […] In addition, the half-life of USP7 protein was examined in CAL33 cells in the presence or absence of PU7-1 treatment. […]
as §1

The test system of test [4] is FOXM1. Briefly: FOXM1 protein half-life (cycloheximide chase) in CAL33 cells. The class given is cell-based, human. Conditions: CAL33, 10 μM 48 h then cycloheximide; without treatment more than 6 hours. The protocol: FIGS. 4F and 4G show CAL33 cells treated with or without 10 μM of PU7-1 for 96 h. Total RNA was extracted and subjected to RNAseq analysis. Differentially expressed genes were further analyzed. Heatmap in FIG. 4G represents the downregulation of known FOXM1 target genes.

Molecules are shown by their SMILES.

Turning to `O=C1CCC(N2Cc3c(CCCCCN4CCN(CCC(=O)Nc5ccc6c(=O)n(CC7(O)CCN(C(=O)C(CCCNC(=O)c8ccc9c(Cl)c%10c(nc9c8)CCCC%10)Cc8ccccc8)CC7)cnc6c5)CC4)cccc3C2=O)C(=O)N1` (centres unmarked), the USP7 protein levels entry on USP7 [1] was “dramatically reduced”. In addition, the “USP7 degradation under CRBN depletion” value on USP7 [2] was “completely abrogated”. The “FOXM1 protein levels in TNBC cells” value with FOXM1 [3] is given as “dramatically decreased”. For the same compound, in the test on p53 pathway, the “USP7 protein levels and p53 pathway” value was “effectively reduced USP7 protein levels and activated p53 pathway”. For the same compound, the “FOXM1 half-life upon treatment” value in the test on FOXM1 [4] turned out to be 3 h.

The record behind these values is patent US20240408094A1, “INHIBITION OF USP7 INDUCES P53-INDEPENDENT TUMOR GROWTH SUPPRESSION IN TRIPLE-NEGATIVE BREAST CANCERS BY DESTABILIZING FOXM1” (The Trustees of Columbia University in the City of New York, priority 2023, published 2024).
